The list shows a part of the results, in another mix than the full data. Inconclusive results are not listed. Activity calls are given as the source filed them. Calls follow the shape of the dose curve; as a rule, active = well fitted inhibition curve with a large enough effect (not every such curve was filed as active); inconclusive = small, poorly fitted or top-dose-only effect, or another doubt; inactive = no such curve, though single readings can be large or run the other way.
What follows are compounds tested against Lysine-specific demethylase 4E (Homo sapiens) (UniProt B2RXH2) (assay: qHTS Assay for Inhibitors of Human Jumonji Domain Containing 2E (JMJD2E)). Settings: JMJD2E catalytic domain, FDH-coupled NADH fluorescence (FDH is formaldehyde dehydrogenase); at 57.1 µM (top of the series) unless noted.
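Also: 0% = wells with enzyme and -100% = buffer wells without enzyme; nearly all actives have a fitted effect of over 50% in size.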

Chains of the proteins cited; added tags and fusions are not shown. Residues count along the entry.
UniProt B2RXH2, 1-337 limits assumed: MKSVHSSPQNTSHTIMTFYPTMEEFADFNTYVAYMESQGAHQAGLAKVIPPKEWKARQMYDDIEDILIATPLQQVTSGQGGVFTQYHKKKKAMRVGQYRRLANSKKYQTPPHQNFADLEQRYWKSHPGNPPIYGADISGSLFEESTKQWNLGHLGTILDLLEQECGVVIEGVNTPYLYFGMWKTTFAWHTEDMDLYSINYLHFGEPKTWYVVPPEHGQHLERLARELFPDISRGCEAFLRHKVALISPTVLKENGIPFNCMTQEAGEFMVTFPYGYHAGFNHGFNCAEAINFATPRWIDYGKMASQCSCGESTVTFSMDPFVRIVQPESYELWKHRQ

SMILES | activity change, negative = inhibition
Cc1cccc(C)c1OP(C)(=O)Nc1ccc(SC(F)(F)F)cc1 (configuration not stated) | inactive: -14%
CP(=O)(Nc1ccc(SC(F)(F)F)cc1)Oc1ccc(Cl)cc1 (configuration not stated) | inactive: -0.129%
CP(=O)(Oc1ccccc1)OC(c1ccccc1)C(F)(F)F (configuration not stated) | inactive: -2.73%
CCc1ccc(OP(C)(=O)N2CCN(c3ccc([N+](=O)[O-])cc3)CC2)cc1 (configuration not stated) | inactive: -20.7%
CP(=O)(NC(=O)Nc1ccccc1)Oc1ccccc1 (configuration not stated) | inactive: -1.3%
Cc1cc(C)cc(OP(C)(=O)Nc2ccc(SC(F)(F)F)cc2)c1 (configuration not stated) | inactive: -0.0845%
CCOC(=O)c1ccc(NP(C)(=O)Oc2ccc(OC)cc2)cc1 (configuration not stated) | inactive: 18.3%
CP(=O)(Nc1ccccn1)Oc1ccc(Cl)cc1 (configuration not stated) | inactive: 0.638%
CP(=S)(Nn1cnnc1)Oc1ccccc1 (configuration not stated) | inactive: -2.22%
CP(=O)(Nc1ccccc1Br)Oc1ccccc1 (configuration not stated) | inactive: 0.445%
COc1ccccc1OP(C)(=O)Nc1ccccc1 (configuration not stated) | inactive: 4.23%
O=[N+]([O-])c1ccc2c(c1)C=Nc1ccccc1O2 | inactive: 0.691%
CC(C)(C)c1ccc(OP(C)(=O)Nc2ccc(SC(F)(F)F)cc2)cc1 (configuration not stated) | inactive: -3.79%
Cc1cccc(C)c1OP(C)(N)=O (configuration not stated) | inactive: -3.58%
COc1ccccc1OP(C)(=O)Nc1ccc(C)cc1 (configuration not stated) | inactive: 0.248%
Cc1ccc(NP(C)(=O)Oc2ccccc2)c(C)c1 (configuration not stated) | inactive: 1.04%
CCOC(=O)c1ccc(NP(C)(=O)Oc2ccccc2)cc1 (configuration not stated) | inactive: 8.22%
Cc1cc(C)cc(OP(C)(N)=O)c1 (configuration not stated) | inactive: -6.94%
COc1ccccc1OP(C)(=O)Nc1cc(Cl)ccc1C (configuration not stated) | inactive: -3.33%
COc1ccc(OP(C)(=O)Nc2cccc(F)c2)cc1 (configuration not stated) | inactive: 6.52%
CCN(CC)CCCOC(=O)C(O)(c1ccccc1)c1ccccc1 | inactive: 15.9%
COc1ccccc1OP(C)(=O)Nc1cccc(Br)c1 (configuration not stated) | inactive: -1.19%
CCOC(=O)c1ccc(NP(C)(=O)Oc2cc(C)cc(C)c2)cc1 (configuration not stated) | inactive: -2.92%
Cc1cc(C)cc(OP(C)(=O)Nc2ccc(C)cc2C)c1 (configuration not stated) | inactive: 4.16%
Cc1ccc(C)c(NP(C)(=O)Oc2ccccc2)c1 (configuration not stated) | inactive: 5.7%
CP(=O)(Nc1cccc(Br)c1)Oc1ccccc1 (configuration not stated) | inactive: 7.72%

SMILES | activity change, negative = inhibition
Cc1cc(C)cc(OP(C)(=O)Nc2ccccn2)c1 (configuration not stated) | inactive: 0.416%
O=[N+]([O-])c1cc([N+](=O)[O-])c(Nc2nnnn2CCO)c([N+](=O)[O-])c1 | inactive: -25.8%
COc1ccccc1OP(C)(=O)Nc1c(C)cccc1C (configuration not stated) | inactive: 5.75%
CN1CCCCC1COC(=O)C1(O)c2ccccc2CCc2ccccc21 (configuration not stated) | inactive: 1.27%
CP(=O)(Nc1ccc(SC(F)(F)F)cc1)Oc1ccccc1 (configuration not stated) | inactive: -9.41%
CCCOc1ccc(NP(C)(=O)Oc2ccc(Cl)cc2)cc1 (configuration not stated) | inactive: 2.47%
O=[N+]([O-])c1cc([N+](=O)[O-])c(-n2nnc3ccccc32)c([N+](=O)[O-])c1 | inactive: -5.96%
Cc1nc2ccc3ccccc3c2s1.O=[N+]([O-])c1cc([N+](=O)[O-])c(O)c([N+](=O)[O-])c1 | inactive: -8.04%
CP(=O)(Nc1ccc(SC(F)(F)F)cc1)Oc1ccc(F)cc1 (configuration not stated) | inactive: -7.96%
CCOP(C)(=S)SCC(=O)NC(C)(CC)C(=O)O (configuration not stated) | inactive: 0.789%
CP(=O)(Nc1ccc2c(c1)OCCO2)Oc1ccccc1 (configuration not stated) | inactive: -4.36%
CCN(CCCl)Cc1ccccc1C | inactive: -1.3%
Cc1ccccc1NP(C)(=O)Nc1ccccc1C | inactive: 11%
COc1ccc(OP(C)(=O)Nc2cccc(Br)c2)cc1 (configuration not stated) | inactive: 2.82%
CN(C)CCOC(=O)C(O)(c1ccccc1)C1CCCCC1 (configuration not stated) | inactive: 4.42%
COc1ccc(NP(C)(=O)Oc2ccccc2OC)cc1 (configuration not stated) | inactive: 5.32%
O=[N+]([O-])c1ccc(OP2(=O)COCCO2)cc1 (configuration not stated) | inactive: 4.91%
CCOC(=O)c1ccc(NP(C)(=O)Oc2ccc(F)cc2)cc1 (configuration not stated) | inactive: 10.2%
COc1ccc(OP(C)(=O)Nc2ccc(SC(F)(F)F)cc2)cc1 (configuration not stated) | inactive: -4.75%
CCN(CC)CCCOC(=O)C(O)(c1ccccc1)C1CCCCC1 (configuration not stated) | inactive: 5.5%
CP(=O)(Nc1ccccc1)Oc1ccc(F)cc1 (configuration not stated) | inactive: 1.1%
CCCCCOc1ccc(NP(C)(=O)Oc2ccc(Cl)cc2Cl)cc1 (configuration not stated) | inactive: -26.7%
CP(=O)(Nc1ccccc1F)Oc1ccccc1 (configuration not stated) | inactive: 4.35%
CC(C)c1ccc(OP(C)(=O)Nc2ccc(SC(F)(F)F)cc2)cc1 (configuration not stated) | inactive: -7.33%
O=C(OCCN1CCN(CCOCc2ccccc2)CC1)C(O)(c1ccccc1)c1ccccc1 | inactive: -7.18%
COc1ccccc1OP(C)(=O)Nc1ccc(Br)cc1 (configuration not stated) | inactive: -0.0831%

SMILES | activity change, negative = inhibition
COc1ccc(OP(C)(=O)Nc2ccccn2)cc1 (configuration not stated) | inactive: 4.88%
CN(C)CCOC(=O)C(O)(c1ccccc1)C1CCCC1 (configuration not stated) | inactive: 5.59%
Cc1c(NP(C)(=O)Oc2ccc(C(C)C)cc2)c(=O)n(-c2ccccc2)n1C (configuration not stated) | inactive: -1.26%
CP(=O)(Nc1ccccn1)Oc1ccccc1 (configuration not stated) | inactive: -7.43%
COc1ccccc1OP(C)(=O)Nc1ccc(C)cc1C (configuration not stated) | inactive: 1.71%
CCc1ccc(OP(C)(=O)O)cc1 | inactive: -2.83%
Cc1cc(C)cc(OP(C)(=O)Nc2cccc(C(F)(F)F)c2)c1 (configuration not stated) | inactive: 0.228%
COc1ccccc1OP(C)(=O)Nc1ccc(C)c(C)c1 (configuration not stated) | inactive: 5.51%
COc1ccc(OP(C)(=O)Nc2ccccc2Br)cc1 (configuration not stated) | inactive: 2.79%
CP(=O)(OCCOc1ccccc1)OCCOc1ccccc1 | inactive: 8.06%
CP(=O)(Nc1ccc(Cl)cc1Cl)Oc1ccccc1 (configuration not stated) | inactive: 3.33%
CCOC(=O)c1ccc(NP(C)(=O)Oc2ccc(Cl)cc2)cc1 (configuration not stated) | inactive: 14.5%
CP(=O)(OC12CC3CC(CC(C3)C1)C2)OC12CC3CC(CC(C3)C1)C2 | inactive: 1.8%
C/C1=C2N=C(/C=C3N=C(/C(C)=C4\[N-][C@@](C)([C@H]5N=C1[C@@](C)(CCC(=O)NC[C@H](C)OP(=O)([O-])O[C@@H]1[C@H](O)[C@H](n6cnc7cc(C)c(C)cc76)O[C@@H]1CO)[C@@H]5CC(N)=O)[C@](C)(CC(N)=O)[C@H]4CCC(N)=O)[C@@](C)(CC(N)=O)[C@@H]\3CCC(N)=O)C(C)(C)[C@@H]/2CCC(N)=O.[C-]#N.[Co+3] | inactive: -8.82% [at 25.5 µM]
CCN(CC)CC(O)COC(=O)C(O)(c1ccccc1)C1CCCCC1 (configuration not stated) | inactive: 1.73%
COc1ccc(OP(C)(=O)Nc2ccc(Br)cc2)cc1 (configuration not stated) | inactive: 3.01%
COc1ccccc1OP(C)(=O)Nc1c(C)n(C)n(-c2ccccc2)c1=O (configuration not stated) | inactive: 0.759%
OCCSCCO | inactive: 12.6%
O=C(OCCCN1CCCC1)C(O)(c1ccccc1)C1CCCCC1 (configuration not stated) | inactive: -0.0302%
CP(=O)(Oc1ccccc1)N1CCOC1=O (configuration not stated) | inactive: 0.718%
CCc1ccc(OP(C)(=O)Nc2cccnc2)cc1 (configuration not stated) | inactive: -3.04%
CC(C)(C)c1ccc(OP(C)(=O)O)cc1 | inactive: 3.65%
COc1ccccc1OP(C)(=O)Nc1ccccc1Br (configuration not stated) | inactive: 7.56%
CP(=O)(Nc1ccc(Cl)cc1)Oc1ccc(F)cc1 (configuration not stated) | inactive: -0.323%
CN(C)C(=O)c1c([N+](=O)[O-])cc([N+](=O)[O-])cc1[N+](=O)[O-] | inactive: -6.73%

— PubChem BioAssay AID2147 (National Center for Advancing Translational Sciences (NCATS), 2009)
